Consider 2 compounds from patent US20210024498A1, “TETRAHYDROPYRROLE COMPOUND, PREPARATION METHOD THEREFOR, PHARMACEUTICAL COMPOSITION CONTAINING SAME, AND USE THEREOF” (MEDICONNS (SHANGHAI) BIOPHARMACEUTICAL CO., LTD, priority 2017, published 2021).

By UniProt entry, the sequences of proteins in these tests, tags left out.
UniProt P14416, whole entry: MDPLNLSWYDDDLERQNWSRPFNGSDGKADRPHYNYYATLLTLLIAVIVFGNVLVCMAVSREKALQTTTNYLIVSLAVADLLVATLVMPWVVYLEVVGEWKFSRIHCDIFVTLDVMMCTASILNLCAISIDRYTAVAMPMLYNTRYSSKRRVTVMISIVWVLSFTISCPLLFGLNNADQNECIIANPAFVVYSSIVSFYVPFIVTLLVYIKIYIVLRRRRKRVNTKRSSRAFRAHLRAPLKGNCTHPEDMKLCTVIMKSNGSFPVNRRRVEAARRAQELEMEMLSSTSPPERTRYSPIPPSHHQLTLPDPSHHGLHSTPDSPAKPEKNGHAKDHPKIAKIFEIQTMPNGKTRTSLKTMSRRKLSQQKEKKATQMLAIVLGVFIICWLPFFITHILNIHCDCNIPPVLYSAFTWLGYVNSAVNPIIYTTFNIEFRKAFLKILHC
UniProt Q01959, whole entry: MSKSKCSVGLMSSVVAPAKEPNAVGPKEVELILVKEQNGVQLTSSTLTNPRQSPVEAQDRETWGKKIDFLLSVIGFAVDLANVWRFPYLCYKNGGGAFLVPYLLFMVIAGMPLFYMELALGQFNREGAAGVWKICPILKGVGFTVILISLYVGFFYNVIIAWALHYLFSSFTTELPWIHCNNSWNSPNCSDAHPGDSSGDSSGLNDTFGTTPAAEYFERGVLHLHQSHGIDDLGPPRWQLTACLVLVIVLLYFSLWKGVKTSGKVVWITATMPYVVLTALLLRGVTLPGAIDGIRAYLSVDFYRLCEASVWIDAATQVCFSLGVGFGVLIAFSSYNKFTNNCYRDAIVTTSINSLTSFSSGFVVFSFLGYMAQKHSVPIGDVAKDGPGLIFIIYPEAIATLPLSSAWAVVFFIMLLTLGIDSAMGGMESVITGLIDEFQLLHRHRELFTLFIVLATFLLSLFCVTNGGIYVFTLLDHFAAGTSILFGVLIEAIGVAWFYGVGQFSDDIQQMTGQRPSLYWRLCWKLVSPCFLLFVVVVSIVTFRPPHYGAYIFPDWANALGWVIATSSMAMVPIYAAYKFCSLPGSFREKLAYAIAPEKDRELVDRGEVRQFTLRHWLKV

SMILES strings stand for the structures.

For assay [1], the target named is T1, D2 receptor (Homo sapiens, UniProt P14416). Nature of the assay: D2 receptor affinity assay (radioligand competition, 3H-7-OH-DPAT). Type of assay: binding. Conditions: read-out: D2 affinity assay IC50; cloned D2 receptor expressed in HEK293 cell line; 3H-7-OH-DPAT 1 nM. A general note: Loss of bound radioactivity is the signal in a displacement assay; it reports binding, not function.

For assay [2], the target named is T1, D2 receptor. The assay can be described thus: D2 receptor function assay, calcium mobilization (FLIPR). It counts as cell-based. Particulars: read-out: Calcium mobilization assay IC50, HEK293, antagonism of D2 receptor.
The next assay deals with DAT (Homo sapiens, UniProt Q01959). The assay can be described thus: DAT transporter assay (neurotransmitter transporter absorption assay). Type of assay: cell-based. Conditions: read-out: Neurotransmitter transporter (DAT) absorption assay IC50.

As for `Oc1cccc(C2CCN(Cc3c[nH]c4ccccc34)C2)c1` (single isomer, unassigned) [MDC-161502-011], the results for the IC50 at D2 receptor [1], at D2 receptor [2] and at DAT were 3.46 nM, 2 nM and 14.7 nM, respectively.

As to `Oc1cccc(C2CCN(Cc3c[nH]c4ccccc34)C2)c1` (single isomer, unassigned) [MDC-161502-010], the figures for the IC50 at D2 receptor [1], at D2 receptor [2] and on DAT were 2.35 nM, 144 nM and 218 nM, respectively.
